# According to patent US20260209200A1, “SALTS OF A DIHYDROOROTATE DEHYDROGENASE (DHOD) INHIBITOR” (priority 2022, published 2026):
# Assays:
# [1] = Kinetic solubility of PP-001 salts in FaSSIF (HPLC); format: physicochemical; conditions: 4 mL FaSSIF, 25° C., target 2 mg/mL
# Experimental: Approximately 8 mg (calculated as freebase) of each salt was weighed out into each glass vial and then 4 ml of FaSSIF was added (target concentration was 2 mg/mL). The sample was kept stirring on a magnetic stirrer at a speed of I 00 RPM under 25° C. Then at the time points of initial, 0.5 hr, 1 hr, 2 hrs and 24 hrs, 0.5 mL of sample solution was transferred into 1.5 mL centrifugation tube and centrifuged at 12,000 RPM for 10 min. The supernatant was diluted by 50% ACN suitable and analyzed by HPLC.
# An HPLC method of testing solubility was performed as follows in Table A: […]
# [2] = Thermodynamic (equilibrium) solubility of PP-001 salts in FaSSIF; format: physicochemical; conditions: 3 mL FaSSIF, 37° C.; for Final pH: pH tested after 24 hours
# Experimental: Procedure of equilibrium solubility test: […] As the solid was completely dissolved, add more sample to keep it saturated. […] Then at the time point 2 hrs, 0.5 mL of sample solution was transferred into 1.5 mL centrifugation tube and centrifuged at 12,000 RPM for 10 min. The supernatant was diluted by 50% ACN suitable and analyzed by HPLC. The pH was tested after 24 hours.
Final pH [2],Appearance after stirring for 24 hours ([2]; saturated),Compound,Appearance after stirring for 24 hours [1],Final pH [1]
,,[Mg] [Magnesium],,6.49
6.36,Suspension,CNC[C@H](O)[C@@H](O)[C@H](O)[C@H](O)CO [Meglumine],clear solution,6.52
6.49,,[K+] [Potassium],,
,,Sodium,,6.53

Compound,Final pH [2],Appearance after stirring for 24 hours ([2]; saturated),Appearance after stirring for 24 hours [1],Final pH [1]
NCCCC[C@H](N)C(=O)O [Lysine],6.53,,clear solution,6.50
